1 molecule from patent US20200255511A1 (TILLOTTS PHARMA, published 2020) can be followed below.

Sequences of proteins named here, by UniProt entry; tags and fusion partners are left off. Residues count along the entry.
UniProt P55899, 24-297 limits assumed, chain 1 of 2: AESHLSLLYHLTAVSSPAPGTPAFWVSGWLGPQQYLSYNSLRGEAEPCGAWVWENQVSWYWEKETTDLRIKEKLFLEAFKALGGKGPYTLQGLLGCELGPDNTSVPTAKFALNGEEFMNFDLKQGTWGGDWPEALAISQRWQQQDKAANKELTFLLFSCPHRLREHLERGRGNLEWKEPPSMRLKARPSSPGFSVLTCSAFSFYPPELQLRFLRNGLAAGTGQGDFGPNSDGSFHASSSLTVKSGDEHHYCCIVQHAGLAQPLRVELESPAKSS

This assay has as its target T1, monomeric His-tagged human FcRn (human, UniProt P55899 24-297; P61769 21-119, limits assumed).
T1 construct: also called hFcRn
The assay is described as follows: SPR (Biacore 3000) at pH 6.0, antibody amine-coupled, monomeric His-tagged hFcRn as analyte, 25 °C. For orientation: SPR reads the build-up and loss of mass on a sensor chip optically.

B1: infliximab (antibody)
chain 1: not shown
chain 2: DILLTQSPAILSVSPGERVSFSCRASQFVGSSIHWYQQRTNGSPRLLIKYASESMSGIPSRFSGSGSGTDFTLSINTVESEDIADYYCQQSHSWPFTFGSGTNLEVKRTVAAPSVFIFPPSDEQLKSGTASVVCLLNNFYPREAKVQWKVDNALQSGNSQESVTEQDSKDSTYSLSSTLTLSKADYEKHKVYACEVTHQGLSSPVTKSFNRGEC
As a reminder, the Kd is the equilibrium constant for the complex coming apart. A high value points to a looser complex. B1 came in with a Kd of 425 nM.
